Data: PMC12813979

Key:
RbBP5 peptide (R5P) [1] = assay: BLI; 5 nM biotinylated R5P immobilised on streptavidin sensors; ΔN-WDR5 0.11-9.0 µM in the wells, no ARTEVY; 150 mM KCl, 20 mM Tris-HCl, 1 mM TCEP, 1 mg/mL BSA, pH 7.5; global fit of kon and koff, KD derived indirectly from them; triplicates
RbBP5 peptide (R5P) [2] = assay: BLI; 5 nM biotinylated R5P immobilised on streptavidin sensors; WDR5 0.11-9.0 µM in the wells with 20 µM ARTEVY spiked in; 150 mM KCl, 20 mM Tris-HCl, 1 mM TCEP, 1 mg/mL BSA, pH 7.5; global fit of kon and koff, KD derived indirectly from them; triplicates

Kd (RbBP5 peptide (R5P) [1]) [nM]	Kd (RbBP5 peptide (R5P) [2]) [nM]	Substance
1500	–	N-terminus truncated WDR5, WDR5 23-334 (from UniProt P61964 23-334) (domain or fragment)
–	1400	WD40 repeat protein 5 (WDR5), full-length (from UniProt P61964 1-334) (natural protein)
